This note sets out measurements from patent publication US9368421B2, “Under-fill material and method for producing semiconductor device” (NITTO DENKO CORPORATION, priority 2011, dated 2016).

The pKa is the pH at which an ionisable group is half protonated. Low readings indicate a stronger acid or weaker base, high ones a weaker acid or stronger base.

This data set in a line: Acid dissociation constant pKa of flux agent. The settings on record: dilute aqueous solution.

Molecule `CCCCCCCC/C=C\CCCCCCCC(=O)O` [Oleic acid, oleic acid] showed a pKa of 5.
